The series can be described thus: activity coefficient (dimensionless); of the first substance listed, at infinite dilution; xn = mol fraction of the nth substance listed. As to conditions: 101.33 kPa, Liquid, Chromatography, x1 = 0.

± gives the expanded uncertainty stated by the source.

For `CCCCOCCCC` [dibutyl ether] + CCCCCCCCCCCCCC[P+](CCCCCC)(CCCCCC)CCCCCC.N#CC(=C=[N-])C#N, the activity coefficient was 1.7 ± 0.11 (328.15 K); 1.75 ± 0.12 (338.15 K); 1.79 ± 0.12 (348.15 K); 1.83 ± 0.12 (358.15 K); 1.86 ± 0.13 (368.15 K).
